Values of other authors, collected in patent US5487990A (The General Hospital Corporation, priority 1992, dated 1996).

Sequences of proteins named here, by UniProt entry; tags and fusion partners are left off. A change or cut given only in a name is not applied to a line headed by its entry.
UniProt Q99NB7: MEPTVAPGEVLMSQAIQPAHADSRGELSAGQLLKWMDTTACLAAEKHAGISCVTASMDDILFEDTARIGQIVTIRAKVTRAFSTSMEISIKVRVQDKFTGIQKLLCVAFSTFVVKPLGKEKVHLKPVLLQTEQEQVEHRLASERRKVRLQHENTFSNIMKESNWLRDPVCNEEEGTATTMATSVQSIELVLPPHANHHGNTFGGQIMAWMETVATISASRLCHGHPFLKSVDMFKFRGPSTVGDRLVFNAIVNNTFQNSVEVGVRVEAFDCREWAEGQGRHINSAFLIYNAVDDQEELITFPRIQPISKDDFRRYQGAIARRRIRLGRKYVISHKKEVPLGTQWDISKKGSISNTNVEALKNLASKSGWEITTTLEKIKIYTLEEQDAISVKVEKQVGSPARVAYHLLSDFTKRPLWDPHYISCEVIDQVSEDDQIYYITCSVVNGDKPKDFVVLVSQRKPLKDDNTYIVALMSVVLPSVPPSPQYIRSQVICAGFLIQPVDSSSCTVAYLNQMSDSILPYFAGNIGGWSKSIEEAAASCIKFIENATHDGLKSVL

Biological target: T1, soluble cytosolic acetyl-CoA hydrolase found in rat liver (Rattus norvegicus, UniProt Q99NB7)
T1 construct: host or cells: rat liver cytoplasm (Prass et al. 1980; Soling et al. 1985)
Details: rat liver cytoplasmic, cold-labile enzyme; cited from earlier work

Structure (SMILES): Nc1ncnc2c1ncn2[C@@H]1O[C@H](COP(=O)(O)OP(=O)(O)OP(=O)(O)O)[C@@H](O)[C@H]1O [ATP]
- effect on enzyme (in words): activated
